Where only a bound is given, the exact number is not on record here.

Protein sequences, listed by entry. Tags and fused reporters are not part of them. Residues count along the entry.
UniProt P21802, 22-821: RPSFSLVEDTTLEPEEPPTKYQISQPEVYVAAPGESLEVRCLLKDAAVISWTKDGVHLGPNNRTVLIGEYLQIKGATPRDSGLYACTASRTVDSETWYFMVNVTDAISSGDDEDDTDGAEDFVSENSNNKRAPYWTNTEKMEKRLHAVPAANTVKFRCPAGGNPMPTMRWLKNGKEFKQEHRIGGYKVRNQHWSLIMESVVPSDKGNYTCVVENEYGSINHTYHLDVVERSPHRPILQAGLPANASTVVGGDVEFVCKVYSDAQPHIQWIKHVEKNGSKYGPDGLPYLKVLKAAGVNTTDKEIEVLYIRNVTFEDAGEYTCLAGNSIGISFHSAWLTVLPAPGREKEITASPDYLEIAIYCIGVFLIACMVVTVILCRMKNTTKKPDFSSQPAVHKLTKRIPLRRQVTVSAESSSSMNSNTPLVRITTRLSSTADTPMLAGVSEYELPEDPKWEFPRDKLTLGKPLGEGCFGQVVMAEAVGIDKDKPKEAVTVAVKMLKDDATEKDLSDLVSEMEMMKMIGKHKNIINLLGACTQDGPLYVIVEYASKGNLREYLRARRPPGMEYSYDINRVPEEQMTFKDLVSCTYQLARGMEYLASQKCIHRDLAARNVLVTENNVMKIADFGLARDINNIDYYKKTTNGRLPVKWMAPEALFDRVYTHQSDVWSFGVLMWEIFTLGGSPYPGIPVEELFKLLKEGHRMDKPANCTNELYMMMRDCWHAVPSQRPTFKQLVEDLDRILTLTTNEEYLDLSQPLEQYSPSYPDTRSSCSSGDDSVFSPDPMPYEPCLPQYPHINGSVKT
UniProt P22607, 23-806: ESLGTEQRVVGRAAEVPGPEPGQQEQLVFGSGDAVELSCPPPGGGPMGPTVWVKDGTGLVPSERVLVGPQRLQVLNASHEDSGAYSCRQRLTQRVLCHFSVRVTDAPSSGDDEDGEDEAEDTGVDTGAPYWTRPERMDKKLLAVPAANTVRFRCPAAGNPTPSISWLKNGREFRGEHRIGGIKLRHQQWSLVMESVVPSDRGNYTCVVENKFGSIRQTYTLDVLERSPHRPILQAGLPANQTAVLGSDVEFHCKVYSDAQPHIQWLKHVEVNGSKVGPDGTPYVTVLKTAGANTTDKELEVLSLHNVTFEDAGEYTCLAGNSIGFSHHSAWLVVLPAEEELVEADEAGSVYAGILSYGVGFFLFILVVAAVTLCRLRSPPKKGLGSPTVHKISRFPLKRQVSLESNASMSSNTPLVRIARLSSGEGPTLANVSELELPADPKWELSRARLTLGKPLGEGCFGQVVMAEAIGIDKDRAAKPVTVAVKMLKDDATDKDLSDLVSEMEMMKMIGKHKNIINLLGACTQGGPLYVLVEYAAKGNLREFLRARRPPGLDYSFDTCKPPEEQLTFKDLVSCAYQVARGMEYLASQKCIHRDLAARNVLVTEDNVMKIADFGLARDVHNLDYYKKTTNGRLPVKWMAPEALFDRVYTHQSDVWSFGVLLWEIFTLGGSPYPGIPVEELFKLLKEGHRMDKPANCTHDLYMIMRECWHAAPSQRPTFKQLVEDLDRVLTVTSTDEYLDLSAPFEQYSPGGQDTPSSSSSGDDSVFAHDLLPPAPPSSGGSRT

Among the data in patent US9801889B2, “Bicyclic heterocycles as FGFR4 inhibitors” (Incyte Corporation, priority 2015, dated 2017) are FGFR2/FGFR4 and FGFR3/FGFR4 values, retold here.

The target of assay [1] is FGFR2 (Homo sapiens (Human), UniProt P21802). In words: FGFR Enzymatic Assay (FRET peptide phosphorylation), FGFR2. To be noted: IC50 ratio showing FGFR4 selectivity.
The target of assay [2] is FGFR3 (Homo sapiens (Human), UniProt P22607). As to the kind of experiment: FGFR Enzymatic Assay (FRET peptide phosphorylation), FGFR3. The following applies: IC50 ratio showing FGFR4 selectivity.
Setting [3] is: pre-incubated for 5 to 10 minutes.

As to `C=CC(=O)Nc1cncc(-c2cc3c(cn2)CN(c2c(F)c(OC)cc(OC)c2F)C(=O)C32CC2)c1` [Example 3, N-(5-(2′-(2,6-difluoro-3,5-dimethoxyphenyl)-3′-oxo-2′,3′-dihydro-1′H-spiro[cyclopropane-1,4′-[2,7]naphthyridine]-6′-yl)pyridin-3-yl)acrylamide], the FGFR2/FGFR4 in assay [1] (setting [3]) is more than 50; in assay [1] (pre-incubated for 4 hours), more than 100. The FGFR3/FGFR4 in assay [2] (setting [3]) and in assay [2] (pre-incubated for 4 hours) was more than 100 in each case.

In the case of `C=CC(=O)N(C)c1cccc(-c2cc3c(cn2)CN(c2c(F)c(OC)cc(OC)c2F)C(=O)C32CC2)c1` [Example 9, N-(3-(2′-(2,6-difluoro-3,5-dimethoxyphenyl)-3′-oxo-2′,3′-dihydro-1′H-spiro[cyclopropane-1,4′-[2,7]naphthyridine]-6′-yl)phenyl)-N-methylacrylamide], the FGFR2/FGFR4 in assay [1] (setting [3]) was more than 3; in assay [1] (pre-incubated for 4 hours) it was more than 10. Further, the FGFR3/FGFR4 is on record as more than 2 in assay [2] (setting [3]) and more than 10 in assay [2] (pre-incubated for 4 hours).

For `C=CC(=O)Nc1cc(-c2cc3c(cn2)CN(c2c(F)c(OC)cc(OC)c2F)C(=O)C32CC2)ccc1CO` [Example 13, N-(5-(2′-(2,6-difluoro-3,5-dimethoxyphenyl)-3′-oxo-2′,3′-dihydro-1′H-spiro[cyclopropane-1,4′-[2,7]naphthyridine]-6′-yl)-2-(hydroxymethyl)phenyl)acrylamide], the figures for the FGFR3/FGFR4 in assay [2] (setting [3]) and in assay [2] (pre-incubated for 4 hours) were more than 25 and more than 50, respectively.
